Experimental data published in US20110135757A1, “MICROAEROSOL-BASED DECONTAMINATION METHOD” (published 2011).

Experiment: Decontamination effectiveness of MAEAS in the presence of Fe+2
Conditions: FeSO4 added to sodium chloride for the production of MAEAS

## FeSO4
  effect on decontaminating effectiveness of MAEAS: positive effect
